Biological target: T1, indoleamine 2,3-dioxygenase 1 (IDO1) (Homo sapiens, UniProt P14902)
T1 construct: full-length, N-terminal His-AK tag (His-AK-IDO1)
Assay: purified recombinant enzyme inhibitor screen (compounds at […]), kynurenine absorbance at […] nm
Format: biochemical

Protein sequences, listed by entry. Tags and fused reporters are not part of them.
UniProt P14902, whole entry: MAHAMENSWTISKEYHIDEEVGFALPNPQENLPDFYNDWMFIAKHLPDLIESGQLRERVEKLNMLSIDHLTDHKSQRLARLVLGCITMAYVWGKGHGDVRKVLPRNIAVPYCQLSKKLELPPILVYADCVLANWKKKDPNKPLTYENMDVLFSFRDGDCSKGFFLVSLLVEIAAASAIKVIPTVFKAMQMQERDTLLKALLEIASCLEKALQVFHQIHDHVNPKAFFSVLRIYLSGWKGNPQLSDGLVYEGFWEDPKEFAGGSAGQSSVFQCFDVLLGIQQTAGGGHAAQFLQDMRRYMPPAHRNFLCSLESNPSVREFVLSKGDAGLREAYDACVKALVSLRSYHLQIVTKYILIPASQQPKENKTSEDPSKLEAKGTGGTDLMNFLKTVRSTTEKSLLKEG

## C[C@]12CCC(=O)C=C1CC[C@@H]1[C@@H]2CC[C@]2(C)C(=O)CC[C@@H]12 [androstenedione]
  purified recombinant enzyme inhibitor screen (compounds at 10 μM), kynurenine ab: several compounds, including mangostin and androstenedione, could inhibit the activity of IDO1 (Supplementary Figures S1A,B)

From article PMC9091350, “Sodium Tanshinone IIA Sulfonate as a Potent IDO1/TDO2 Dual Inhibitor Enhances Anti-PD1 Therapy for Colorectal Cancer in Mice” (Frontiers in Pharmacology, 2022)
